Article PMC2222952, “Structural and Biochemical Bases for the Inhibition of Autophagy and Apoptosis by Viral BCL-2 of Murine γ-Herpesvirus 68” (PLoS Pathogens, 2008)

Chains of the proteins cited; added tags and fusions are not shown. Residues count along the entry.
UniProt P89884, 1-137: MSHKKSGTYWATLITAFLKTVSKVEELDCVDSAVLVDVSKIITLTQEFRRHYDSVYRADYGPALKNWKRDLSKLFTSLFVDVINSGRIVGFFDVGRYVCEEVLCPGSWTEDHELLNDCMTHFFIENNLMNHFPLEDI

Assays:
[1] = Circular dichroism spectroscopy, helical contents of Beclin1 peptides; assay type: physicochemical; conditions: CD, mean residue ellipticity at 222 nm; 0.1 mg/mL peptide in 40 mM sodium phosphate buffer (pH 7.0) containing 30% TFE; accumulation of three scans
Description: Data were collected on a JASCO model J-810 spectropolarimeter with a 0.2 cm cuvette. CD spectrum was recorded over the range of 200–250 nm in a nitrogen atmosphere with peptides dissolved in 40 mM sodium phosphate buffer (pH 7.0) containing 30% TFE at the concentration of 0.1 mg/mL. The spectrum was the accumulation of three scans corrected by subtracting signals from the buffer control. The law CD signal at 222 nm (in millidegrees) was converted to mean residue ellipticity ([θ]obs, in deg ^. cm^2 ^. dmol^−1) using the equation [drawing 1] where C is the peptide concentration (in millimolarity), n is the number of residues in the peptide, and l is the pathlength (in cm). The contents of helix (F helix) was calculated using the equation [drawing 2] where [θ]helix represents the mean residue ellipticity for a complete helix of infinite length at 0 °C (−42,500(1−3/n) deg ^. cm^2 ^. dmol^−1) and [θ]coil is the ellipticity of a complete random coil at 0 °C (640 deg ^. cm^2 .dmol^−1).
The Beclin1(101–125) peptide has considerably higher helical contents than the Beclin1(106–125) peptide. (257 KB TIF) Click here for additional data file.

[2] = target: T1, M11, viral BCL-2 of murine γ-herpesvirus 68 (residues 1–137) (Murid herpesvirus 4, UniProt P89884); assay type: binding; conditions: ITC, 25 °C, 20 mM Tris-HCl (pH 7.4), 100 mM NaCl; Table S2
T1 construct: Each of the DNA fragments coding for M11 (residues 1–137); His6 tag; This is inferred: pPROEX HTa encodes an N-terminal His tag with a TEV site, and purification was on Ni-NTA; (N); made in house; host or cells: E. coli BL21(DE3)
Source text: “HT”, “CCD” and “ECD” denote hydrophobic tail, coiled-coil domain and evolutionarily conserved domain, respectively. […] The surface coloring scheme is as follows: olive for Val, Leu, Ile, Phe, Trp, Met, and Ala; yellow for Cys, Gly, Tyr, and Pro; gray for other amino acids. […] Only the BH3-binding groove region of M11 is shown for clarity. […] The arrows indicate the movements of the Cα atoms of Asp59 and Tyr60 in M11. (C) ITC analysis.
Figure 5 Analyses of the Interactions between M11 or BCL-2 Proteins and BAX/BAK (A) Cell-based binding assay. 293T cells were transfected with HA-tagged BAK or Flag-tagged BAX together with the indicated GST-tagged prosurvival BCL-2 proteins. Whole cell lysates were used for immunoprecipitation with anti-GST followed by immunoblotting with anti-HA or anti-Flag. […] (B) ITC analyses of the interactions of M11 with the BH3 peptides of BAX or BAK. The ITC analysis was carried out by titrating 0.1 mM of the indicated peptides into 5 μM of M11. The ITC run for the titration of the 26-mer BAK peptide is shown. […] NIH3T3 cells were transfected with HA-tagged M11 and whole cell lysates were used for immunoprecipitation with control rabbit serum or anti-BAK followed by immunoblotting with anti-HA.
A plasmid containing the DNA segment coding for human BCL-2 (residues 1–50 and 92–207) was also constructed. The resulting protein lacks the internal long loop (residues 51–91) and contains a replacement of residues 35–50 with residues 33–48 of BCL-XL, which was necessary for the solubility of the protein as reported earlier. Each construct was introduced into the E. coli BL21(DE3) strain. The proteins were expressed at 21 °C overnight and purified using a Ni-NTA column and a Hitrap Q anion exchange column.
All measurements were carried out at 25 °C on a MicroCalorimetry System (MicroCal). Protein samples were dialyzed against the solution containing 20 mM Tris-HCl (pH 7.4) and 100 mM NaCl. The samples were degassed for 20 min and centrifuged to remove any residuals prior to the measurements. Dilution enthalpies were measured in separate experiments (titrant into buffer) and subtracted from the enthalpies of the binding between the protein and the titrant. Data were analyzed using the Origin software (OriginLab Corp.).

For `CC[C@H](C)[C@H](NC(=O)[C@H](CC(=O)O)NC(=O)[C@H](Cc1ccccc1)NC(=O)[C@H](CC(C)C)NC(=O)[C@H](CC(=O)O)NC(=O)CNC(=O)[C@@H](NC(=O)[C@@H](NC(=O)[C@H](CCCCN)NC(=O)[C@H](CC(C)C)NC(=O)[C@H](CCCNC(=N)N)NC(=O)[C@H](CCCNC(=N)N)NC(=O)[C@H](CO)NC(=O)[C@H](CC(C)C)NC(=O)[C@H](CC(N)=O)NC(=O)[C@H](CCC(=O)O)NC(=O)[C@H](CCSC)NC(=O)[C@@H](NC(=O)CNC(=O)CNC(=O)[C@H](CC(=O)O)NC(=O)[C@H](CO)NC(=O)[C@H](C)N)[C@@H](C)O)C(C)C)[C@@H](C)O)C(=O)N[C@@H](CCSC)C(=O)N[C@@H](CO)C(=O)O` [Beclin1(101–125)], the helical contents [1] was 29.6%, the “-T∆S (M11 + Beclin1)” value [2] was 5.01 kcal/mol and the “∆G (M11 + Beclin1)” value [2] was -9.56 kcal/mol. For the same compound, the “∆H (M11 + Beclin1)” value [2] was -14.57 ± 0.11 kcal/mol.

For `CC[C@H](C)[C@H](NC(=O)[C@H](CC(=O)O)NC(=O)[C@H](Cc1ccccc1)NC(=O)[C@H](CC(C)C)NC(=O)[C@H](CC(=O)O)NC(=O)CNC(=O)[C@@H](NC(=O)[C@@H](NC(=O)[C@H](CCCCN)NC(=O)[C@H](CC(C)C)NC(=O)[C@H](CCCNC(=N)N)NC(=O)[C@H](CCCNC(=N)N)NC(=O)[C@H](CO)NC(=O)[C@H](CC(C)C)NC(=O)[C@H](CC(N)=O)NC(=O)[C@H](CCC(=O)O)NC(=O)[C@H](CCSC)NC(=O)[C@@H](N)[C@@H](C)O)C(C)C)[C@@H](C)O)C(=O)N[C@@H](CCSC)C(=O)N[C@@H](CO)C(=O)O` [Beclin1(106–125)], the helical contents [1] was 17.0%, the “-T∆S (M11 + Beclin1)” value [2] was 5.13 kcal/mol and the “∆G (M11 + Beclin1)” value [2] was -7.91 kcal/mol. The “∆H (M11 + Beclin1)” value [2] was -13.04 ± 0.27 kcal/mol.
